# From IntAct's records for PubMed 16626738
# B1: G/T mismatch-specific thymine DNA glycosylase (Homo sapiens), Q13569 (parent)
# chain: MEAENAGSYSLQQAQAFYTFPFQQLMAEAPNMAVVNEQQMPEEVPAPAPAQEPVQEAPKGRKRKPRTTEPKQPVEPKKPVESKKSGKSAKSKEKQEKITDTFKVKRKVDRFNGVSEAELLTKTLPDILTFNLDIVIIGINPGLMAAYKGHHYPGPGNHFWKCLFMSGLSEVQLNHMDDHTLPGKYGIGFTNMVERTTPGSKDLSSKEFREGGRILVQKLQKYQPRIAVFNGKCIYEIFSKEVFGVKVKNLEFGLQPHKIPDTETLCYVMPSSSARCAQFPRAQDKVHYYIKLKDLRDQLKGIERNMDVQEVQYTFDLQLAQEDAKKMAVKEEKYDPGYEAAYGGAYGENPCSSEPCGFSSNGLIESVELRGESAFSGIPNGQWMTQSFTDQIPSFSNHCGTQEQEEESHA
# Variants of: B1
# Conditions: with sumo2_human SUMO2
row,Variant,effect of a mutation on the interaction
1,MEAENAGSYSLQQAQAFYTFPFQQLMAEAPNMAVVNEQQMPEEVPAPAPAQEPVQEAPKGRKRKPRTTEPKQPVEPKKPVESKKSGKSAKSKEKQEKITDTFKVKRKVDRFNGVSEAELLTKTLPDILTFNLDIVIIGINPGLMAAYKGHHYPGPGNHFWKCLFMSGLSEVQLNHMDDHTLPGKYGIGFTNMVERTTPGSKDLSSKEFREGGRILVQKLQKYQPRIAVFNGKCIYEIFSKEVFGVKVKNLEFGLQPHKIPDTETLCYVMPSSSARCAQFPRAQDKVHYYIKLKDLRDQLKGIERNMDAQEVQYTFDLQLAQEDAKKMAVKEEKYDPGYEAAYGGAYGENPCSSEPCGFSSNGLIESVELRGESAFSGIPNGQWMTQSFTDQIPSFSNHCGTQEQEEESHA [V308A],disrupting interaction strength
2,MEAENAGSYSLQQAQAFYTFPFQQLMAEAPNMAVVNEQQMPEEVPAPAPAQEPVQEAPKGRKRKPRTTEPKQPVEPKKPVESKKSGKSAKSKEKQEKITDTFKVKRKVDRFNGVSEAELLTKTLPDILTFNLDIVIIGINPGLMAAYKGHHYPGPGNHFWKCLFMSGLSEVQLNHMDDHTLPGKYGIGFTNMVERTTPGSKDLSSKEFREGGRILVQKLQKYQPRIAVFNGKCIYEIFSKEVFGVKVKNLEFGLQPHKIPDTETLCYVMPSSSARCAQFPRAQDKVHYYIKLKDLRDQLKGIERNMDVQQVQYTFDLQLAQEDAKKMAVKEEKYDPGYEAAYGGAYGENPCSSEPCGFSSNGLIESVELRGESAFSGIPNGQWMTQSFTDQIPSFSNHCGTQEQEEESHA [E310Q],disrupting interaction strength
3,MEAENAGSYSLQQAQAFYTFPFQQLMAEAPNMAVVNEQQMPEEVPAPAPAQEPVQEAPKGRKRKPRTTEPKQPVEPKKPVESKKSGKSAKSKEKQEKITDTFKVKRKVDRFNGVSEAELLTKTLPDILTFNLDIVIIGINPGLMAAYKGHHYPGPGNHFWKCLFMSGLSEVQLNHMDDHTLPGKYGIGFTNMVERTTPGSKDLSSKEFREGGRILVQKLQKYQPRIAVFNGKCIYEIFSKEVFGVKVKNLEFGLQPHKIPDTETLCYVMPSSSARCAQFPRAQDKVHYYIKLKDLRDQLKGIERNMAVQEVQYTFDLQLAQEDAKKMAVKEEKYDPGYEAAYGGAYGENPCSSEPCGFSSNGLIESVELRGESAFSGIPNGQWMTQSFTDQIPSFSNHCGTQEQEEESHA [D307A],disrupting interaction strength
4,MEAENAGSYSLQQAQAFYTFPFQQLMAEAPNMAVVNEQQMPEEVPAPAPAQEPVQEAPKGRKRKPRTTEPKQPVEPKKPVESKKSGKSAKSKEKQEKITDTFKVKRKVDRFNGVSEAELLTKTLPDILTFNLDIVIIGINPGLMAAYKGHHYPGPGNHFWKCLFMSGLSEVQLNHMDDHTLPGKYGIGFTNMVERTTPGSKDLSSKEFREGGRILVQKLQKYQPRIAVFNGKCIYEIFSKEVFGVKVKNLEFGLQPHKIPDTETLCYVMPSSSARCAQFPRAQDKVHYYIKLKDLRDQLKGIERNMDVAEVQYTFDLQLAQEDAKKMAVKEEKYDPGYEAAYGGAYGENPCSSEPCGFSSNGLIESVELRGESAFSGIPNGQWMTQSFTDQIPSFSNHCGTQEQEEESHA [Q309A],with no effect
5,MEAENAGSYSLQQAQAFYTFPFQQLMAEAPNMAVVNEQQMPEEVPAPAPAQEPVQEAPKGRKRKPRTTEPKQPVEPKKPVESKKSGKSAKSKEKQEKITDTFKVKRKVDRFNGVSEAELLTKTLPDILTFNLDIVIIGINPGLMAAYKGHHYPGPGNHFWKCLFMSGLSEVQLNHMDDHTLPGKYGIGFTNMVERTTPGSKDLSSKEFREGGRILVQKLQKYQPRIAVFNGKCIYEIFSKEVFGVKVKNLEFGLQPHKIPDTETLCYVMPSSSARCAQFPRAQDKVHYYIKLKDLRDQLKGIERNMDVQEVQATFDLQLAQEDAKKMAVKEEKYDPGYEAAYGGAYGENPCSSEPCGFSSNGLIESVELRGESAFSGIPNGQWMTQSFTDQIPSFSNHCGTQEQEEESHA [Y313A],disrupting interaction strength

# Continued, values first:
row,effect of a mutation on the interaction,Variant
1,disrupting interaction strength,MEAENAGSYSLQQAQAFYTFPFQQLMAEAPNMAVVNEQQMPEEVPAPAPAQEPVQEAPKGRKRKPRTTEPKQPVEPKKPVESKKSGKSAKSKEKQEKITDTFKVKRKVDRFNGVSEAELLTKTLPDILTFNLDIVIIGINPGLMAAYKGHHYPGPGNHFWKCLFMSGLSEVQLNHMDDHTLPGKYGIGFTNMVERTTPGSKDLSSKEFREGGRILVQKLQKYQPRIAVFNGKCIYEIFSKEVFGVKVKNLEFGLQPHKIPDTETLCYVMPSSSARCAQFPRAQDKVHYYIKLKDLRDQLKGIERNMDVQEVQYTADLQLAQEDAKKMAVKEEKYDPGYEAAYGGAYGENPCSSEPCGFSSNGLIESVELRGESAFSGIPNGQWMTQSFTDQIPSFSNHCGTQEQEEESHA [F315A]
2,decreasing interaction strength,MEAENAGSYSLQQAQAFYTFPFQQLMAEAPNMAVVNEQQMPEEVPAPAPAQEPVQEAPKGRKRKPRTTEPKQPVEPKKPVESKKSGKSAKSKEKQEKITDTFKVKRKVDRFNGVSEAELLTKTLPDILTFNLDIVIIGINPGLMAAYKGHHYPGPGNHFWKCLFMSGLSEVQLNHMDDHTLPGKYGIGFTNMVERTTPGSKDLSSKEFREGGRILVQKLQKYQPRIAVFNGKCIYEIFSKEVFGVKVKNLEFGLQPHKIPDTETLCYVMPSSSARCAQFPRAQDKVHYYIKLKDLRDQLKGIERNMDVQEAQYTFDLQLAQEDAKKMAVKEEKYDPGYEAAYGGAYGENPCSSEPCGFSSNGLIESVELRGESAFSGIPNGQWMTQSFTDQIPSFSNHCGTQEQEEESHA [V311A]
